Measurements published in ChEMBL document CHEMBL5537189 (J Med Chem, 2024).
Calls of active or inactive are those of the source. The calls are words filed in the database; no cut-off is given here.

Chains of the proteins cited; added tags and fusions are not shown. Lines headed by an entry give the natural chain unless they say otherwise; changes in a name come on top.
UniProt P10276, whole entry: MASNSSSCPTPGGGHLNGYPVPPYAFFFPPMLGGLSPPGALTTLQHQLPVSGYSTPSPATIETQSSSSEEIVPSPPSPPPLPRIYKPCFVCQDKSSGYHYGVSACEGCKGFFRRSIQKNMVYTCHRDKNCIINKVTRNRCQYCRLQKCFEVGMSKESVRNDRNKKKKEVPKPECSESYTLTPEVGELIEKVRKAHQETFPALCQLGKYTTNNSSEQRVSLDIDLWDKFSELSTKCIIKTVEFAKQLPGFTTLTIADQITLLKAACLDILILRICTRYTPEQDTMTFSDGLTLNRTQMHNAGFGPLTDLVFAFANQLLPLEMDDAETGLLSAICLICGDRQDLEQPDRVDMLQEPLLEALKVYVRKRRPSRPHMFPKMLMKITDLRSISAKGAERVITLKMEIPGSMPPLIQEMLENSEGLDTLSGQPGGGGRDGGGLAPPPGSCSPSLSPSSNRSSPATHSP
UniProt P10826, whole entry: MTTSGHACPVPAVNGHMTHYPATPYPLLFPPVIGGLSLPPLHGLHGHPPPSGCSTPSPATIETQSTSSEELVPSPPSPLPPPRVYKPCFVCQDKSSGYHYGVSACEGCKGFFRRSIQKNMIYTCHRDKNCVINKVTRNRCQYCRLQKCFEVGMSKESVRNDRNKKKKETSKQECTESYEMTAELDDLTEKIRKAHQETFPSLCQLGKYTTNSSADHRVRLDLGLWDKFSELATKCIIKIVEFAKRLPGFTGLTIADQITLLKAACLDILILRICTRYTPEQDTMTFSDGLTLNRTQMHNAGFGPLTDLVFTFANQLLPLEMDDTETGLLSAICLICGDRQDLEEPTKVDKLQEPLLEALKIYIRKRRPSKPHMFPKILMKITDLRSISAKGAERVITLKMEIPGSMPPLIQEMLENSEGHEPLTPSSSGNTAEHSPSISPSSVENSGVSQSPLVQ
UniProt P13631, whole entry: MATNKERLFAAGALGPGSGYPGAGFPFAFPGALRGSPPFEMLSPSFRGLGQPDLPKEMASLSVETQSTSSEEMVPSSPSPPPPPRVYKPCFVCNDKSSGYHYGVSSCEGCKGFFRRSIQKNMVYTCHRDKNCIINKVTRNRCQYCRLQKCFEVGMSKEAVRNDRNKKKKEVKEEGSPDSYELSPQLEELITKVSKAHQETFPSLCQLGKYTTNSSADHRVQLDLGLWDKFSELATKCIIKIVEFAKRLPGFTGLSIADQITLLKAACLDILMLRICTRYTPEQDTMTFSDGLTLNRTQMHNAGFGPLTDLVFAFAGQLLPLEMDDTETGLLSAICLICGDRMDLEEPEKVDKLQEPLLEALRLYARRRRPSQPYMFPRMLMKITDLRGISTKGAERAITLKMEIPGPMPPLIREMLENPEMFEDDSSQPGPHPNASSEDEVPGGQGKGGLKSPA
UniProt P37231: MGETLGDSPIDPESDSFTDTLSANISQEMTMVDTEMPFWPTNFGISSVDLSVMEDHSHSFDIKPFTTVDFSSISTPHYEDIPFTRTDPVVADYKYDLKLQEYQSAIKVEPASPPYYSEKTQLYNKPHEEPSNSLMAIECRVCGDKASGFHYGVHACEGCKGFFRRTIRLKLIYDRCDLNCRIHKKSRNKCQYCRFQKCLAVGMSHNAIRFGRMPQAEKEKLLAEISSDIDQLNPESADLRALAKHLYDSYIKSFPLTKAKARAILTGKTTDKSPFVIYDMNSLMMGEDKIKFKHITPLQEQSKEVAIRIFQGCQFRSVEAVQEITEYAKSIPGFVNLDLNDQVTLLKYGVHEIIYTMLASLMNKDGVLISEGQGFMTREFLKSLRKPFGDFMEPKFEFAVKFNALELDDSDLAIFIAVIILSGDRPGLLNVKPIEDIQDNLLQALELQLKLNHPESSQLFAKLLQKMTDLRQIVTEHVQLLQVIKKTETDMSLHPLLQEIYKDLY
UniProt P55055, whole entry: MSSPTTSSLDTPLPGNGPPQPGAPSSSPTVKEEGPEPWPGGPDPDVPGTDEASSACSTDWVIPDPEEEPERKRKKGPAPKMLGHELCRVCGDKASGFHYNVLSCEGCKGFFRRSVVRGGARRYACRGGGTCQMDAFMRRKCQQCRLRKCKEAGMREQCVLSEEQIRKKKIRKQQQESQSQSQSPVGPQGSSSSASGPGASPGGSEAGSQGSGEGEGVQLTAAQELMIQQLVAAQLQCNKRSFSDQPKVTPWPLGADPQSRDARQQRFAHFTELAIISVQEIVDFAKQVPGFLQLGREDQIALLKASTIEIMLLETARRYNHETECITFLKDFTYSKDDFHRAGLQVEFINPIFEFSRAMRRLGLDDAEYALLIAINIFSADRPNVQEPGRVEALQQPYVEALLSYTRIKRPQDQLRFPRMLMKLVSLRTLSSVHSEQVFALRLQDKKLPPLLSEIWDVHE
UniProt Q13133, whole entry: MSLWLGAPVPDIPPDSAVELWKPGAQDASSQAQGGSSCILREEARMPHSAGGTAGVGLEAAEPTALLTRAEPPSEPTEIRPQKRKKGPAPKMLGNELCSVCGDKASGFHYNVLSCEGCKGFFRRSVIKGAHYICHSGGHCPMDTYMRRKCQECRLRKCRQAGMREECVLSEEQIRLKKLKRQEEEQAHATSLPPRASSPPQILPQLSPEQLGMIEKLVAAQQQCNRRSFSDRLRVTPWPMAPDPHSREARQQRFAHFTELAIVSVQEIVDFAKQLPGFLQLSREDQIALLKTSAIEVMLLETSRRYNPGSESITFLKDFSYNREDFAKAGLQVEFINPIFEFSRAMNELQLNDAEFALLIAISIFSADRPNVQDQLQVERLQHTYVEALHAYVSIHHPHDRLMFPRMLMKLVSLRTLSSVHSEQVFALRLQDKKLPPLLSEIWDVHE

Key:
COS-7 = assay: Cytotoxicity against African green monkey COS7 cells at upto 100 uM by CCK-8 method; type: toxicity, cell-based; details: chlorocebus aethiops, cos-7, 100 µM
[1] = molecular target: T1, Thyroid hormone receptor alpha (Homo sapiens) (UniProt P10827); assay: Partial agonist activity NR1A1 (unknown origin) assessed as mean relative activation at 1 uM relative to reference agonist
T1 sequence (whole entry): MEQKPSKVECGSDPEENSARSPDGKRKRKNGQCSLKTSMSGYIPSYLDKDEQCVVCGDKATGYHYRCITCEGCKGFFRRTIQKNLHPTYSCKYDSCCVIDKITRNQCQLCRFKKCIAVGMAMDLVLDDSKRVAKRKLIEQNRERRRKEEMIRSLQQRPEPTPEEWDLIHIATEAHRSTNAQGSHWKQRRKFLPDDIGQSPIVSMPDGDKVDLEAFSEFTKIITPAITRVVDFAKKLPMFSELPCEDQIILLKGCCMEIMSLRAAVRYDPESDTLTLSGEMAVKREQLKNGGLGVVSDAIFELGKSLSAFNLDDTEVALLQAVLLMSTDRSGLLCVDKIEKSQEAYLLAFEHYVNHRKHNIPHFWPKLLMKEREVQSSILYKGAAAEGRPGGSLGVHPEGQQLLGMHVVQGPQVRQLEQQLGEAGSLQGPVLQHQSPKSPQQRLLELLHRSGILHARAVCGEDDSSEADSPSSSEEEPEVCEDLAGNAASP

[2] = molecular target: T2, Thyroid hormone receptor beta (Homo sapiens) (UniProt P10828); assay: Partial agonist activity NR1A2 (unknown origin) assessed as mean relative activation at 1 uM relative to reference agonist
T2 sequence (whole entry): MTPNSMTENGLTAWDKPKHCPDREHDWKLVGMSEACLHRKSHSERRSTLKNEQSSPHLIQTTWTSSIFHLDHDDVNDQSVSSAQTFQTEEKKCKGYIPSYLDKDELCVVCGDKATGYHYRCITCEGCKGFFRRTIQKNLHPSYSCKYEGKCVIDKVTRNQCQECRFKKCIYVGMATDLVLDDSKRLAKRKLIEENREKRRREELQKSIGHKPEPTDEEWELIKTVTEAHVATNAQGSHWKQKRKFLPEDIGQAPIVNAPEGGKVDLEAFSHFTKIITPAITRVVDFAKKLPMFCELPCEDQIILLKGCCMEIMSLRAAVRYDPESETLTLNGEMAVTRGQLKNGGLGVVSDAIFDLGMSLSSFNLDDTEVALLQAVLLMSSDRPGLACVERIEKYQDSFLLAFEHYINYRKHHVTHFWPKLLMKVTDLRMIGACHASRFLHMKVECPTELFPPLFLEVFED

[3] = molecular target: Retinoic acid receptor alpha (Homo sapiens) (UniProt P10276); assay: Partial agonist activity NR1B1 (unknown origin) assessed as mean relative activation at 1 uM relative to reference agonist
[4] = molecular target: Retinoic acid receptor beta (Homo sapiens) (UniProt P10826); assay: Partial agonist activity NR1B2 (unknown origin) assessed as mean relative activation at 1 uM relative to reference agonist
[5] = molecular target: Retinoic acid receptor gamma (Homo sapiens) (UniProt P13631); assay: Partial agonist activity NR1B3 (unknown origin) assessed as mean relative activation at 1 uM relative to reference agonist
[6] = molecular target: T3, Nuclear receptor subfamily 2 group C member 1 (Homo sapiens) (UniProt P13056); assay: Partial agonist activity NR1C1 (unknown origin) assessed as mean relative activation at 1 uM relative to reference agonist
T3 sequence (whole entry): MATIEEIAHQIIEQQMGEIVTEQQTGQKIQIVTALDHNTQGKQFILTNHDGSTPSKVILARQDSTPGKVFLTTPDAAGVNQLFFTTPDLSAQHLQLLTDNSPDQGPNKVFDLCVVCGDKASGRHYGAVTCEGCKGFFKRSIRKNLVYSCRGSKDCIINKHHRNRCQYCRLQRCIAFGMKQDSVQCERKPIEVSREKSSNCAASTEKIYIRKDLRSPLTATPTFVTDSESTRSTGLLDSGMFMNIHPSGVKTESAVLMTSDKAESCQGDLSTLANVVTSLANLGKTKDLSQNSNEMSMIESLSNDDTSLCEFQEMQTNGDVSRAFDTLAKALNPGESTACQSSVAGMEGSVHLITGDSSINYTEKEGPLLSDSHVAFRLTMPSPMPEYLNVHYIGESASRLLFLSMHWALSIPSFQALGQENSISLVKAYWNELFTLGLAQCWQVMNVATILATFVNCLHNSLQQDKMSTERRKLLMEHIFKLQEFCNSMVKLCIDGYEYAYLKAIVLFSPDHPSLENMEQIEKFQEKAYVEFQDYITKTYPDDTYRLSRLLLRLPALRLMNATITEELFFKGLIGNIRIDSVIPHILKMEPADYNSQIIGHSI

[7] = molecular target: T4, Peroxisome proliferator-activated receptor delta (Homo sapiens) (UniProt Q03181); assay: Partial agonist activity NR1C2 (unknown origin) assessed as mean relative activation at 1 uM relative to reference agonist
T4 sequence (whole entry): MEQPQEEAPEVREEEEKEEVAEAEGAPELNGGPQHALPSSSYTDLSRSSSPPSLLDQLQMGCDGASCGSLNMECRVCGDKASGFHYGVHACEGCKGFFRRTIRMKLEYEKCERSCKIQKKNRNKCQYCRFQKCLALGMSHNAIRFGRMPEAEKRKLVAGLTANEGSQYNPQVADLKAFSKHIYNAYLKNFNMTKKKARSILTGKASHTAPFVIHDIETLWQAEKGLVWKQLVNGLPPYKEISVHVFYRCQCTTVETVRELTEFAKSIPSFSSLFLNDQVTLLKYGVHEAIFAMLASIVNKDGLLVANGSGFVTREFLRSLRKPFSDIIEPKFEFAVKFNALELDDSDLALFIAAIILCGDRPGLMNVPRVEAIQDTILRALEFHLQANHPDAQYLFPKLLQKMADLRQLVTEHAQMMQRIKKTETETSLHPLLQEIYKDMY

[8] = molecular target: Peroxisome proliferator-activated receptor gamma (Homo sapiens) (UniProt P37231); assay: Partial agonist activity NR1C3 (unknown origin) assessed as mean relative activation at 1 uM relative to reference agonist
[9] = molecular target: Oxysterols receptor LXR-beta (Homo sapiens) (UniProt P55055); assay: Partial agonist activity NR1H2 (unknown origin) assessed as mean relative activation at 1 uM relative to reference agonist
[10] = molecular target: Oxysterols receptor LXR-alpha (Homo sapiens) (UniProt Q13133); assay: Partial agonist activity NR1H3 (unknown origin) assessed as mean relative activation at 1 uM relative to reference agonist
[11] = molecular target: T5, Bile acid receptor (Homo sapiens) (UniProt Q96RI1); assay: Partial agonist activity NR1H4 (unknown origin) assessed as mean relative activation at 1 uM relative to reference agonist
T5 sequence (whole entry): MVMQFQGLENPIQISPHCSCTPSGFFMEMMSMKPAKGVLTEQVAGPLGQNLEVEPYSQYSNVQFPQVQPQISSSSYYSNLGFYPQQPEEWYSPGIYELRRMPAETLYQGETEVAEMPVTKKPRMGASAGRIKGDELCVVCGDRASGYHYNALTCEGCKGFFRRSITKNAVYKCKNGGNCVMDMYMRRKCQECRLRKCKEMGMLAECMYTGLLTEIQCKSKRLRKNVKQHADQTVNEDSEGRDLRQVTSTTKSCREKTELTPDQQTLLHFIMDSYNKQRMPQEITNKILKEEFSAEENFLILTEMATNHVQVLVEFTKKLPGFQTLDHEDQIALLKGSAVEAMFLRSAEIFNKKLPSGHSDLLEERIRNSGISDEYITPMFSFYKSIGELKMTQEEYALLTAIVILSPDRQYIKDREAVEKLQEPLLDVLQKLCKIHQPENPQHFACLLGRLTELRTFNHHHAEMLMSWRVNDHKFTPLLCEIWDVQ

[12] = molecular target: T6, Retinoic acid receptor RXR-alpha (Homo sapiens) (UniProt P19793); assay: Partial agonist activity NR2B1 (unknown origin) assessed as mean relative activation at 1 uM relative to reference agonist
T6 sequence (whole entry): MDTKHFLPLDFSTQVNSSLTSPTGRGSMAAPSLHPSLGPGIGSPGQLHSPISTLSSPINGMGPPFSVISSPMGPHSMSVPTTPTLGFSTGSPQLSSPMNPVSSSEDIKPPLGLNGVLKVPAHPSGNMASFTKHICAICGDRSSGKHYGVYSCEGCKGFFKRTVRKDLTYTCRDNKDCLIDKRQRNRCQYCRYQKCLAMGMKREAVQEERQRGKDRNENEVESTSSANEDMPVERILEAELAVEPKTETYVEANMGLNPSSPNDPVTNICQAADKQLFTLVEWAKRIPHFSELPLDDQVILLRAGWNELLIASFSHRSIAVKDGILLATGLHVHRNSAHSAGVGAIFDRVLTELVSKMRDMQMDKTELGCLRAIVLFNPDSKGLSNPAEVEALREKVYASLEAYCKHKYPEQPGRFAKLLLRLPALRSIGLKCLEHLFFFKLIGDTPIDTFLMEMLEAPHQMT

[13] = molecular target: T7, Retinoic acid receptor RXR-gamma (Homo sapiens) (UniProt P48443); assay: Partial agonist activity NR2B3 (unknown origin) assessed as mean relative activation at 1 uM relative to reference agonist
T7 sequence (whole entry): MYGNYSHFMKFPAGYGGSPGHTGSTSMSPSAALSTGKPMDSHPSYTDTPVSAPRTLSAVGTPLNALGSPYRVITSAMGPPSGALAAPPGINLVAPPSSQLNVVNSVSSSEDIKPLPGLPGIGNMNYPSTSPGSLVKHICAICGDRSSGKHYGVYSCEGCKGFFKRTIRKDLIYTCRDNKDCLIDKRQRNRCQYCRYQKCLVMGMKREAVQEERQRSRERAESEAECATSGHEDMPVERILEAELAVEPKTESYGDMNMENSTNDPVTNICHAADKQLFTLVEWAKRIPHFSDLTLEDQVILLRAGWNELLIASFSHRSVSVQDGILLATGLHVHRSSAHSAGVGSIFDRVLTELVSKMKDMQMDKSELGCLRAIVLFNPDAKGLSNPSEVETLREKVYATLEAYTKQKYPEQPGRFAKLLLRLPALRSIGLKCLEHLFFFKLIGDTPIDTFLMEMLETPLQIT

Activity [1]: inactive | Activity [2]: inactive | Activity [3]: inactive | Activity [4]: inactive | Activity [5]: inactive | Activity [6]: inactive | Activity [7]: inactive | Activity [8]: inactive | Activity [9]: inactive | Activity [10]: inactive | Activity [11]: inactive | Activity [12]: inactive | Activity [13]: inactive
Structure (SMILES): CC1(C)CCN(c2cc(Cl)nc(OCCC(=O)O)n2)c2ccccc21
Activity (COS-7): Non-Toxic
